Earlier results as cited in paper PMC8041276 (ACS Chemical Neuroscience, 2021).

Sequences of proteins named here, by UniProt entry; tags and fusion partners are left off.
UniProt P50406, whole entry: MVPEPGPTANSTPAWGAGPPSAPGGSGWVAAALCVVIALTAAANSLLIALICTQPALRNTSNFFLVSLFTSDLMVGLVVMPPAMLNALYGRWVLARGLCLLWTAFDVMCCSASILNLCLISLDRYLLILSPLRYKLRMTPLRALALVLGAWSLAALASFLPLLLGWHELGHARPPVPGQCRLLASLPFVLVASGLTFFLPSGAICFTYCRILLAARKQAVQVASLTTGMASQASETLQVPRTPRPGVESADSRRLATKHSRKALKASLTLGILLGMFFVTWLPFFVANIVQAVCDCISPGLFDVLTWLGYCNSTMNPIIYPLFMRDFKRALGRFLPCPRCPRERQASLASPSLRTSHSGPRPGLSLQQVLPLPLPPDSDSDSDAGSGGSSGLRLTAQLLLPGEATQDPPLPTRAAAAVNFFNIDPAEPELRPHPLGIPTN

Molecular target: 5-HT6R (Homo sapiens, UniProt P50406)
Details: 5-HT6R-dependent Gs signaling; cited from earlier work

## O=S(=O)(c1cccc(Cl)c1)n1ccc2c(N[C@H]3CCNC3)nc3ccccc3c21 [CPPQ, (S)-1-[(3-chlorophenyl)sulfonyl]-4-(pyrrolidine-3-yl-amino)-1H-pyrrolo[3,2-c]quinoline]
  functional profile: neutral antagonist
